Source: patent publication US9611262B2, “Substituted 2-azabicycles and their use as orexin receptor modulators” (JANSSEN PHARMACEUTICA NV, priority 2014, dated 2017)

Amino acid sequences for entries named in this document (tags omitted).
UniProt O43613, whole entry: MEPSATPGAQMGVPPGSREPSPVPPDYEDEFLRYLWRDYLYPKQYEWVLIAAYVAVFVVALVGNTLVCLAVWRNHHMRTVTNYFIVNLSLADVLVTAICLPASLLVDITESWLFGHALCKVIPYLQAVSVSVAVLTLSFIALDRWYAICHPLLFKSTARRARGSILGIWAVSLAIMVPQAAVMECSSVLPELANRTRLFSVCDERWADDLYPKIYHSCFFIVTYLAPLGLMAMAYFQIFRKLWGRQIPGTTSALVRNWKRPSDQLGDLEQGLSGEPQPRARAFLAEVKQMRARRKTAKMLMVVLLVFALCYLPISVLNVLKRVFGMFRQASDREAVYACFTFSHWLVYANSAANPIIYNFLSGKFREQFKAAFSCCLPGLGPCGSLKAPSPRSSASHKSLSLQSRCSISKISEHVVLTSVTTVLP

What was measured:
rat orexin 1 receptor = rat orexin 1 receptor (Rattus norvegicus, UniProt P56718); test: Rat orexin 1 receptor radioligand binding (competitive); settings: HEK293 cells stably expressing rat orexin 1 receptor; 4 nM radioligand; averages of 2-20 runs; read-out: rOX1 Ki
Procedure: (§1) The in vitro affinity of the compounds of the invention for the rat/human orexin 1 and human orexin 2 receptors was determined by competitive radioligand binding using [^3H](1-(5-(2-fluoro-phenyl)-2-methyl-thiazol-4-yl)-1-((S)-2-(5-phenyl-(1,3,4)oxadiazol-2-ylmethyl)-pyrrolidin-1-yl)-methanone) (Langmead et al., 2004) and [^3H]EMPA (n-ethyl-2[96-methoxy-pyridin-3-yl)-(toluene-2-sulfonyl)-amino]-N-pyridin-3-ylmethyl acetamide), respectively (Langmead et al., 2004, British Journal of Pharmacology 141:340-346; Malherbe et al., 2004, British Journal of Pharmacology 156:1326-41).
(§2) Data are analyzed using pc-Sandy macro and graphed on Graphpad Prism 5. For analysis, each concentration point is averaged from triplicate values and the averaged values are plotted on Graphpad Prism. The IC50 was determined by applying the following equation (GraphPad Prism 5.0, San Diego) for one site competition where X=log (concentration) and Y=specific binding. Top denotes the total [^3H]— (1-(5-(2-fluoro-phenyl)-2-methyl-thiazol-4-yl)-1-((S)-2-(5-phenyl-(1,3,4)oxadiazol-2-ylmethyl)-pyrrolidin-1-yl)-methanone) binding, bottom denotes the nonspecific [^3H]— (1-(5-(2-fluoro-phenyl)-2-methyl-thiazol-4-yl)-1-((S)-2-(5-phenyl-(1,3,4)oxadiazol-2-ylmethyl)-pyrrolidin-1-yl)-methanone) binding. Graphpad Prism calculates Ki value from IC50 and the pre-determined Kd values for [^3H]— (1-(5-(2-fluoro-phenyl)-2-methyl-thiazol-4-yl)-1-((S)-2-(5-phenyl-(1,3,4)oxadiazol-2-ylmethyl)-pyrrolidin-1-yl)-methanone) and [^3H]-EMPA. The Ki for each compound is then uploaded into 3DX. Each run comprises individual compounds in triplicate. The data in Table 1 and Table 2 represent averages from between 2-20 runs
(§3) Rat and Human Orexin 1 Receptor Radioligand Binding Studies
(§4) Human Embryonic Kidney 293 cells (HEK293) stably expressing rat orexin 1 receptor (Genebank accession number NM_001525) or Chinese ovary cells (CHO) stably expressing human orexin 1 receptor (Genebank accession number […]) were grown to confluency in DMEM (Hyclone, cat # SH30022), 10% FBS, 1× Pen/Strep, 1× sodium pyruvate, 10 mM HEPES, 600 μg/mL G418 and DMEM/F12 (Gibco, Cat #11039), 10% FBS, 1× Pen/Strep, 600 μg/mL G418 media, respectively on 150 cm^2 tissue culture plates, washed with 5 mM EDTA in PBS (HyClone Dulbecco's Phosphate Buffered Saline 1× with Calcium and Magnesium, Cat # SH30264.01, hereafter referred to simply as PBS) and scraped into 50 ml tubes. After centrifugation (2K×G, 5 min at 4° C.), the supernatant was aspirated and the pellets frozen and stored at −80° C. Cells were resuspended in PBS in the presence of 1 tablet of protease inhibitor cocktail (Roche, Cat. #11836145001) per 50 mL. […] Competition binding experiments in 96 well polypropylene plates were performed using [^3H]— (1-(5-(2-fluoro-phenyl)-2-methyl-thiazol-4-yl)-1-((S)-2-(5-phenyl-(1,3,4)oxadiazol-2-ylmethyl)-pyrrolidin-1-yl)-methanone) (Moraveck Corporation, specific activity=35.3 Ci/mmol), diluted to a 10 nM concentration in PBS (4 nM final). Compounds were solubilized in 100% DMSO (Acros Organics, Cat. #61042-1000) and tested over a range of 7 concentrations (from 0.1 nM to 10 μM). The final concentration of DMSO in the reactions is equal to or less than 0.1%. Total and nonspecific binding was determined in the absence and presence of 10 μM almorexant. The total volume of each reaction is 200 μL (20 μL of diluted compounds, 80 μL of [^3H]— (1-(5-(2-fluoro-phenyl)-2-methyl-thiazol-4-yl)-1-((S)-2-(5-phenyl-(1,3,4)oxadiazol-2-ylmethyl)-pyrrolidin-1-yl)-methanone) diluted in PBS and 100 μL of the cell suspension). Reactions were run for 60 min at room temperature and terminated by filtration through GF/C filter plates (PerkinElmer, Cat. #6005174) presoaked in 0.3% polyethylenimine using the cell harvester (PerkinElmer Filtermate). The plates were washed 3 times by aspirating 30 ml PBS through the plates. Plates were dried in 55° C. oven for 60 min, scintillation fluid was added, and the radioactivity was counted on a Topcount (Packard). […]

human orexin 1 receptor = human orexin 1 receptor (Homo sapiens (Human), UniProt O43613); test: Human orexin 1 receptor radioligand binding (competitive); settings: CHO cells stably expressing human orexin 1 receptor; 4 nM radioligand; averages of 2-20 runs; read-out: hOX1 Ki
Procedure: as §1, §2, §3, §4

SMILES | Ki (rat orexin 1 receptor) | Ki (human orexin 1 receptor)
C[C@@H]1[C@H]2C[C@@H](Oc3cnc4cc(F)c(F)cc4n3)[C@H](C2)N1C(=O)c1cccc(F)c1-n1nccn1 (relative stereo) [Example 190, ((1S*,3R*,4R*,6R*)-6-((6,7-difluoroquinoxalin-2-yl)oxy)-3-methyl-2-azabicyclo[2.2.1]heptan-2-yl)(3-fluoro-2-(2H-1,2,3-triazol-2-yl)phenyl)methanone] | 10 nM | 8 nM
CC1C2CC(Oc3ccc(C(F)(F)F)cn3)C(C2)N1C(=O)c1cccc(F)c1-c1ncc(F)cn1 (racemic) [Example 20, (R/S)-(3-fluoro-2-(5-fluoropyrimidin-2-yl)phenyl)(3-methyl-6-((5-(trifluoromethyl)pyridin-2-yl)oxy)-2-azabicyclo[2.2.1]heptan-2-yl)methanone] | 12 nM | 15 nM
Cc1ccc(-n2nccn2)c(C(=O)N2[C@H](C)[C@H]3C[C@@H](Oc4cnc5ccccc5c4)[C@@H]2C3)n1 (relative stereo) [Example 185, (6-methyl-3-(2H-1,2,3-triazol-2-yl)pyridin-2-yl)((1S*,3R*,4R*,6R*)-3-methyl-6-(quinolin-3-yloxy)-2-azabicyclo[2.2.1]heptan-2-yl)methanone] | 2 nM | 3 nM
Cc1cnc(C(=O)N2[C@H](C)[C@H]3C[C@@H](Oc4cnc(C(F)(F)F)cn4)[C@@H]2C3)c(-n2nccn2)c1 (relative stereo) [Example 48, (5-methyl-3-(2H-1,2,3-triazol-2-yl)pyridin-2-yl)((1S*,3R*,4R*,6R*)-3-methyl-6-((5-(trifluoromethyl)pyrazin-2-yl)oxy)-2-azabicyclo[2.2.1]heptan-2-yl)methanone] | 29 nM | 55 nM
CC1C2CC(Oc3ccc(C(F)(F)F)cn3)C(C2)N1C(=O)c1cc(F)ccc1-c1ncccn1 (single isomer, unassigned) [Example 18A, (5-fluoro-2-(pyrimidin-2-yl)phenyl)((1R*,3S*,4S*,6S*)-3-methyl-6-((5-(trifluoromethyl)pyridin-2-yl)oxy)-2-azabicyclo[2.2.1]heptan-2-yl)methanone] | 142 nM | 167 nM
Cc1ccc(-n2nccn2)c(C(=O)N2C(C)C3CC(Nc4cnc(C(F)(F)F)cn4)C2C3)n1 (single isomer, unassigned) [Example 69, (R/S)-(6-methyl-3-(2H-1,2,3-triazol-2-yl)pyridin-2-yl)(3-methyl-6-((5-(trifluoromethyl)pyrazin-2-yl)amino)-2-azabicyclo[2.2.1]heptan-2-yl)methanone] | 19 nM | 11 nM
Cc1cnc(C(=O)N2C(C)C3CC(Nc4ccc(C(F)(F)F)cn4)C2C3)c(-n2nccn2)c1 (racemic) [Example 61, (R/S)-(5-methyl-3-(2H-1,2,3-triazol-2-yl)pyridin-2-yl)(3-methyl-6-((5-(trifluoromethyl)pyridin-2-yl)amino)-2-azabicyclo[2.2.1]heptan-2-yl)methanone] | 11 nM | 23 nM
CC1C2CC(Oc3ccc(C(F)(F)F)cn3)C(C2)N1C(=O)c1cccc(F)c1-c1ncc(F)cn1 (single isomer, unassigned) [Example 20A, (3-fluoro-2-(5-fluoropyrimidin-2-yl)phenyl)((1R*,3S*,4S*,6S*)-3-methyl-6-((5-(trifluoromethyl)pyridin-2-yl)oxy)-2-azabicyclo[2.2.1]heptan-2-yl)methanone] | 115 nM | 136 nM
Cc1ccc(C(=O)N2[C@H](C)[C@H]3C[C@@H](Oc4ccc(C(F)(F)F)cn4)[C@@H]2C3)c(-n2nccn2)n1 (relative stereo) [Example 25, (6-methyl-2-(2H-1,2,3-triazol-2-yl)pyridin-3-yl)((1S*,3R*,4R*,6R*)-3-methyl-6-((5-(trifluoromethyl)pyridin-2-yl)oxy)-2-azabicyclo[2.2.1]heptan-2-yl)methanone] | 7 nM | 9 nM
CC1C2CC(Nc3cnc(C(F)(F)F)cn3)C(C2)N1C(=O)c1ccccc1-n1nccn1 (single isomer, unassigned) [Example 5B, (2-(2H-1,2,3-triazol-2-yl)phenyl)((1S*,3S*,4S*,6R*)-3-methyl-6-((5-(trifluoromethyl)pyrazin-2-yl)amino)-2-azabicyclo[2.2.1]heptan-2-yl)methanone] | 11 nM | 12 nM
CC1C2CC(Oc3ccc(C(F)(F)F)cn3)C(C2)N1C(=O)c1ncccc1-n1nccn1 (racemic) [Example 9, (R/S)-(3-(2H-1,2,3-triazol-2-yl)pyridin-2-yl)(3-methyl-6-((5-(trifluoromethyl)pyridin-2-yl)oxy)-2-azabicyclo[2.2.1]heptan-2-yl)methanone] | 15 nM | 15 nM
CC1C2CC(Nc3cnc(C(F)(F)F)cn3)C(C2)N1C(=O)c1ccccc1-n1nccn1 (racemic) [Example 5, (R/S)-(2-(2H-1,2,3-triazol-2-yl)phenyl)(3-methyl-6-((5-(trifluoromethyl)pyrazin-2-yl)amino)-2-azabicyclo[2.2.1]heptan-2-yl)methanone] | 20 nM | 11 nM
[2H]C1([2H])[C@H]2C[C@@H]([C@@H]1Oc1ccc(C(F)(F)F)cn1)N(C(=O)c1ncc(C)cc1-n1nccn1)[C@@H]2C [Example 200, [(1R,3R,4S,6R)-2,2-dideuterio-6-methyl-3-[[5-(trifluoromethyl)-2-pyridyl]oxy]-5-azabicyclo[2.2.1]heptan-5-yl]-[5-methyl-3-(triazol-2-yl)-2-pyridyl]methanone] | 7 nM | 7 nM
CC(C)CC1C2CC(Oc3ccc(C(F)(F)F)cn3)C(C2)N1C(=O)c1cccc(F)c1-c1ncccn1 (racemic) [Example 211, (R/S)-(3-fluoro-2-pyrimidin-2-yl-phenyl)-[2-isobutyl-5-[[5-(trifluoromethyl)-2-pyridyl]oxy]-3-azabicyclo[2.2.1]heptan-3-yl]methanone] | 38 nM | 30 nM
Cc1ccc(C(=O)N2[C@H](C)[C@H]3C[C@@H](Oc4cnc(C(F)(F)F)cn4)[C@@H]2C3)c(-n2nccn2)n1 (relative stereo) [Example 49, (6-methyl-2-(2H-1,2,3-triazol-2-yl)pyridin-3-yl)((1S*,3R*,4R*,6R*)-3-methyl-6-((5-(trifluoromethyl)pyrazin-2-yl)oxy)-2-azabicyclo[2.2.1]heptan-2-yl)methanone] | 26 nM | 25 nM
C[C@@H]1[C@H]2C[C@@H](Oc3cnc4cc(F)c(F)cc4n3)[C@H](C2)N1C(=O)c1ccccc1-n1nccn1 (relative stereo) [Example 191, (2-(2H-1,2,3-triazol-2-yl)phenyl)((1S*,3R*,4R*,6R*)-6-((6,7-difluoroquinoxalin-2-yl)oxy)-3-methyl-2-azabicyclo[2.2.1]heptan-2-yl)methanone] | 10 nM | 10 nM
